{"source": "patent US10323013B2", "about": "“Inhibitors of the IRE-1/XBP-1 pathway and methods of using thereof” (H. LEE MOFFITT CANCER CENTER AND RESEARCH INSTITUTE, INC., priority 2013, dated 2019)", "system": "XBP-1s expression", "assay": "Inhibition of XBP-1s expression in LPS-stimulated mouse B cells (immunoblots)", "type": "cell-based", "conditions": "LPS 48 h, then inhibitor 20 μM for 24 h (Example 3 prints 20 mM)", "method": "The protein concentrations of the supernatants were determined by BCA assay (Pierce).\nAn inverse correlation between pharmacological inhibition of XBP-1s and expression level of IRE-1 (FIG. 40A) was observed.", "data": [{"smiles": "C=CCOC(=O)N1CCc2c(c(=O)oc3c(C(=O)OC)c(O)ccc23)C1", "note": "[Compound 41, 3-allyl 7-methyl 8-hydroxy-5-oxo-4,5-dihydro-1H-chromeno[3,4-c]pyridine-3, 7(2H)-dicarboxylate]", "values": [{"measurement": "inhibition of XBP-1s expression (in words)", "value": "little to no inhibitory effect"}]}]}
